From ChEMBL document CHEMBL5385870, “Amide containing NBTI antibacterials with reduced hERG inhibition, retained antimicrobial activity against gram-positive bacteria and in vivo efficacy” (Eur J Med Chem, 2023)
Values after ≈ are worked out from the molar mass of the structure shown.

How the values were obtained:
Format in all cases: functional
[1] = system: Staphylococcus aureus; assay: Antimicrobial activity against cefoxitin/ciprofloxacin/clindamycin/erythromycin/tetracycline/thiamulin/trimethoprim-resistant Staphylococcus aureus assessed as reduction in bacterial growth incubated for 20 hrs by broth microdilution analysis
Procedure, shortened: (§1)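 MIC was determined by broth microdilution per CLSI/EUCAST. Inoculum was 10^5 CFU/mL in cation-adjusted Mueller-Hinton broth with TES, with compounds in DMSO, incubated 20 h at 35 °C. MIC was read visually as the lowest concentration without turbidity. Tetracycline was the plate control.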

[2] = system: Escherichia coli; assay: Antimicrobial activity against Escherichia coli N43 assessed as reduction in bacterial growth incubated for 20 hrs by broth microdilution analysis
[3] = system: Staphylococcus aureus; assay: Antimicrobial activity against cefoxitin/gentamicin/kanamycin/rifampicin/streptomycin/sulfamethoxazole/tetracycline-resistant Staphylococcus aureus assessed as reduction in bacterial growth incubated for 20 hrs by broth microdilution analysis; procedure, shortened: as §1
[4] = system: Staphylococcus aureus; assay: Antibacterial activity against methicilin-resistant Staphylococcus aureus assessed as bacterial growth inhibition

In the case of COc1ccc2nccc(CCN3CCC(NCc4cc(F)c(Br)c(F)c4)CC3)c2n1, the MIC [1] is reported as 0.033 µM (≈ 0.0162 µg/mL), the MIC [2] is reported as 0.016 µM (≈ 0.00786 µg/mL) and the MIC [3] is reported as 0.033 µM (≈ 0.0162 µg/mL). For the same molecule, the MIC [4] was 0.016 mg/L (≈ 0.0326 µM).
